Laboratory results from PubChem BioAssay AID1918 (Vanderbilt High Throughput Screening Facility, 2009).
The entries are a selection whose mix differs from that of the whole data set. Active and inactive are the calls of the source.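 Rule for the calls: active = signal ratio slope over the read window, or its plate-corrected B-score, at least 3 SD from the plate mean, either direction; inactive = the rest.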

Chains of the proteins cited; added tags and fusions are not shown. Lines headed by an entry give the natural chain unless they say otherwise; changes in a name come on top.
UniProt P48048: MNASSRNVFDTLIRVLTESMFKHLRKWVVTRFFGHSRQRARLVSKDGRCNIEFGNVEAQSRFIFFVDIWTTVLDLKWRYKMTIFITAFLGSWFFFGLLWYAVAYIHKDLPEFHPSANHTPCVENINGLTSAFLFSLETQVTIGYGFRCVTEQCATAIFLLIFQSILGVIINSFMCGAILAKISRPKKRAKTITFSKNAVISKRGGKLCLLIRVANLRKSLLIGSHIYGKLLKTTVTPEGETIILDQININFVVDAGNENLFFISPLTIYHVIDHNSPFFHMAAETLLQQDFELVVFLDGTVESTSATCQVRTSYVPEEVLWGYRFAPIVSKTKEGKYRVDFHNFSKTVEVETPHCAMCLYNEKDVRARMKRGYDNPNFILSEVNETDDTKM

What follows are compounds tested against ATP-sensitive inward rectifier potassium channel 1 (Homo sapiens) (UniProt P48048) (assay: ROMK potassium channel modulators, primary screen, cell-based, thallium flux, MLSMR library (AID 1918;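 note: B-score of the F/F0 ratio slope over 7 to 12 s after thallium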)). Details: Tet-inducible ROMK, thallium flux fluorescence; at 10 µM; actives lie on both sides.

| SMILES | B-score |
| --- | --- |
| O=C(NC(Sc1ccncn1)C(Cl)(Cl)Cl)c1ccccc1 (stereo not drawn) | inactive: -0.216 |
| Oc1ccccc1CNc1ccccn1 | inactive: -1.57 |
| Nc1cc(N)c2nonc2c1[N+](=O)[O-] | inactive: -1.17 |
| Clc1ccc(Cl)c(NC2=NCC(CBr)S2)c1 (stereo not drawn) | inactive: -0.799 |
| Cc1ccc(OP(=O)(Nc2nccs2)Oc2ccc(C)cc2)cc1 | inactive: -0.859 |
| COc1ccccc1OP(=O)(Nc1ccc(C)cn1)Oc1ccccc1OC | inactive: 0.549 |
| Cc1ccc(N/C(=N/P(=O)(N2CCOCC2)N2CCOCC2)N2CCOCC2)cc1 | inactive: -0.228 |
| NC(=O)c1cc([N+](=O)[O-])cc([N+](=O)[O-])c1N | inactive: 0.646 |
| Cc1cc(SC(NC(=O)c2ccc(F)cc2)C(Cl)(Cl)Cl)ncn1 (stereo not drawn) | inactive: -0.817 |
| O=[N+]([O-])c1ncn(CCn2ncnc2[N+](=O)[O-])n1 | inactive: -0.528 |
| CC(C)(C)C(=O)NC(Sc1ccncn1)C(Cl)(Cl)Cl (stereo not drawn) | inactive: 0.859 |
| CN(C)C(=O)OCCc1n(C)cc[n+]1C | inactive: 0.376 |
| CC(C)=N/N=C(\N)N[N+](=O)[O-] | inactive: -0.755 |
| CCN(/C(=N/P(=O)(N1CCOCC1)N1CCOCC1)N1CCOCC1)c1ccc(OC)cc1 | inactive: 0.42 |
| C[N+]1=C2C=CC=CC=C2SC12C([N+](=O)[O-])=CC([N+](=O)[O-])=C[C-]2[N+](=O)[O-] (stereo not drawn) | inactive: -0.515 |
| O=[N+]([O-])c1cc([N+](=O)[O-])c(CCNc2ccccc2)c([N+](=O)[O-])c1 | inactive: -0.53 |
| CCc1nc2c(n1)c1c(non1O)c1c2no[n+]1[O-] | active: 2.78 |
| Cc1ccc(NP(=O)(Oc2ccccc2)Oc2ccccc2)nc1 | inactive: 0.482 |
| COc1ccc(C2=NCC(CBr)S2)cc1 (stereo not drawn) | inactive: -1.03 |
| C(Cc1nn[nH]n1)Cc1nn[nH]n1 | inactive: 0.559 |
| O=[As](O)(c1ccccc1)c1ccc(O)cc1 | inactive: -0.0827 |
| O=[N+]([O-])c1ncn(CCn2cnc([N+](=O)[O-])n2)n1 | inactive: -0.0245 |
| CC(=O)NC(SC(=S)N(C)C)C(Cl)(Cl)Cl (stereo not drawn) | inactive: -0.00543 |
| O=P(Nc1ccccn1)(c1ccc(Br)cc1)c1ccc(Br)cc1 | inactive: -0.906 |
| CN(C)C(=O)Oc1noc2ccccc12 | inactive: 0.718 |
| Cc1ccccc1OP(=O)(Nc1ccccn1)Oc1ccccc1C | inactive: -0.556 |
| Cc1ccc(OP(=O)(Nc2ccccn2)Oc2ccc(C)cc2)cc1 | inactive: 1.08 |
| CC(=O)NC(SC(=S)N(CC(C)C)CC(C)C)C(Cl)(Cl)Cl (stereo not drawn) | inactive: 0.701 |
